Experimental data reported in patent publication US20050020613A1, “Sustained release opioid formulations and method of use” (priority 2002, published 2005).

Format: in vivo
Conditions: dose equianalgesic to a 15 mg dose of hydrocodone
Protocol: Equianalgesic doses of various opioids, in comparison to a 15 mg dose of hydrocodone, are set forth in Chart 1 below: […]

CN1CC[C@]23c4c5ccc(O)c4O[C@H]2C(=O)CC[C@H]3[C@H]1C5 [Hydromorphone]
Equianalgesic Doses of Opioids: Calculated Dose: 3.375 mg
